The results in this text go back to publication PMC3928307, “Long-Term Activation upon Brief Exposure to Xanomleline Is Unique to M1 and M4 Subtypes of Muscarinic Acetylcholine Receptors” (PLoS ONE, 2014).

The chains behind the UniProt entries cited, without tags or fusion partners.
UniProt P08172, whole entry: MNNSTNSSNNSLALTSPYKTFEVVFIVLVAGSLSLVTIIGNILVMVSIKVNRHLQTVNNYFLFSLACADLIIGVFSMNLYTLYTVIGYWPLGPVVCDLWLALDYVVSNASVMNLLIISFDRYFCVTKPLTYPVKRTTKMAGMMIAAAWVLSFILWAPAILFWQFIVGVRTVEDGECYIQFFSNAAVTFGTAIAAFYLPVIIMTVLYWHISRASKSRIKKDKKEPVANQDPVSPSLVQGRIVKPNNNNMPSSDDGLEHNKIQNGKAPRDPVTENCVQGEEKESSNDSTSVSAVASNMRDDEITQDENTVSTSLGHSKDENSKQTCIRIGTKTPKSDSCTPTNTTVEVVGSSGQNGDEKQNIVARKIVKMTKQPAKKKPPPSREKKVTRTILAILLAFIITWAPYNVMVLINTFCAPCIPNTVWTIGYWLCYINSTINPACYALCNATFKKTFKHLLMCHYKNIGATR

The target in this experiment is T1, hM2 muscarinic receptor (Homo sapiens, UniProt P08172).
T1 construct: gene CHRM2; full-length receptor stably expressed in CHO cells; human G16 transiently co-transfected for calcium assay
Briefly: Fura-2 intracellular calcium microfluorometry, CHO cells. The experiment is classed as cell-based. In general terms: Calcium flux is commonly read through the fluorescence of an indicator in the cells.

In general, EC50 refers to the midpoint of the concentration-response curve. For the compound `CCCCCCOc1nsnc1C1=CCCN(C)C1` [xanomeline, 3-hexoxy-4-(1-methyl-3,6-dihydro-2H-pyridin-5-yl)-1,2,5-thiadiazole], the EC50 was 79.4 nM.
